## Antibody variant affinities, Ab-14 light chain, assay B

Values reported by Li et al. 2023, doi:10.1038/s41467-023-39022-2 (FLAb copy).

Target peptide (SARS-CoV-2 spike, HR2 region): PDVDLGDISGINAS

The variants keep the heavy chain, the linker and the frameworks of Ab-14 (scFv order VH, three GGGGS repeats, VL).
VH: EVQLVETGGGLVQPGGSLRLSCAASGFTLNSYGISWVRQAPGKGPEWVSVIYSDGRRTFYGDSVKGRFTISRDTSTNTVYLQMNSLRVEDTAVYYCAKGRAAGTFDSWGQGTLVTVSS
VL: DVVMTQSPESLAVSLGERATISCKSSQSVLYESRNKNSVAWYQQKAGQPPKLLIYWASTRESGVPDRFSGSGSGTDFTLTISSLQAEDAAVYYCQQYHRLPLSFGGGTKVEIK

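Phage display of a naive human antibody library on the peptide gave the parent. This is the validation round: designs drawn from the data on random variants, tested in the same kind of assay. Group labels follow the data file (Ctrl: baseline library sampled from a position-specific scoring matrix, with some repeated check sequences; Rand: our label for a block that the file lists under HC and that is probably the random mutants of the ten best first-round binders; En: ensemble of fine-tuned language models; GP: Gaussian process model; HC: hill climbing; Gen: genetic algorithm; Gibbs: Gibbs sampling; a sequence that several methods proposed may carry one label only). In AlphaSeq, yeast of one mating type display the scFv and yeast of the other type display the target. Binding brings cells together so that they mate, and sequencing counts the barcode pairs among the diploids. Each replicate has its own calibration line, from reference interactions of the BCL2 family. Each pool was mated in six replicate cultures.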

Each variant is given by its three light chain CDRs, as the data file delimits them; those of the parent are KSSQSVLYESRNKNSVA, WASTRES, QQYHRLPLS.
Values are apparent Kd, the geometric mean of the replicates that gave a signal; lower means stronger binding.
"no signal" means that the variant was in the library but no mating with the target was seen in any replicate; the authors take this as a sign of poor binding, and no number exists.
The list is sorted by this average, lowest first, undetected variants last.
In the paper, a design with two or fewer of six values counts as a poor binder.
As a blank, each scFv also met three strains without target: over all light chain designs, 4% of these pairings were detected, typically at 430 nM and seldom below 38 nM.
The range of this assay differs from that of the first round, and the authors advise against merging the two.
Some sequences occur more than once in the pool; their replicates are pooled.

| # | CDR-L1 | CDR-L2 | CDR-L3 | group | Kd | seen in |
|---|---|---|---|---|---|---|
| 1 | KLDQSVLYESRNKNSVA | NASQREQ | QQYHRLPLS | GP_Gen | 320 pM | 6/6 |
| 2 | KLPQSWLYESRNKNAVA | NASTRES | QQYHRLPLS | GP_Gen | 440 pM | 6/6 |
| 3 | KVSQQKLYESRNKNSVA | DASTRES | QQYHRLPLS | GP_HC | 450 pM | 6/6 |
| 4 | KQSQEKLYESRNKNSVA | DGSTRES | QQYHRLPLS | GP_HC | 460 pM | 6/6 |
| 5 | KISQSYLYESRNKNSVA | NASTRES | QQYHRLPLS | GP_Gen | 550 pM | 6/6 |
| 6 | KLSQVYLYESRNKNSVA | GASTRES | QQYHRLPLS | GP_HC | 550 pM | 6/6 |
| 7 | SLYDAMLMESRNKNPIA | DVSTRPS | QQYHRLPLS | En_HC | 630 pM | 6/6 |
| 8 | KVSQSVLYESRNSNSVA | NASTRES | QQYHRLPLS | GP_Gen | 660 pM | 6/6 |
| 9 | KLQQSFLYESRNKNSVA | GASTRES | QQYHRLPLS | GP_Gen | 670 pM | 6/6 |
| 10 | KCSQSVDYLSRNMNNVA | NASTRES | QDYHRLPLS | GP_Gibbs | 710 pM | 6/6 |
| 11 | KSSQSVLYESRNKNSVA | DASTREP | QQYHRLPLS | Ctrl | 710 pM | 6/6 |
| 12 | KVSQSVLYESRDKNSVA | NASTRES | QQYHRLPLS | GP_HC | 760 pM | 6/6 |
| 13 | KLVWSDLYESRNKNNVA | GASQRES | QQYHRLPLS | GP_Gibbs | 770 pM | 6/6 |
| 14 | TLLTGVTENAKNGKAIA | NNEEKAQ | QQYFRLPFS | En_Gibbs | 780 pM | 6/6 |
| 15 | KMQNSNGYESRNKNAVA | QASTRMS | QQYHRLPLS | GP_Gibbs | 800 pM | 6/6 |
| 16 | SVRHPFQGENGMRGSVA | NATIRDQ | QQYFRLPLF | En_Gibbs | 820 pM | 6/6 |
| 17 | KSSQSVLAQSRNKNSVA | DASTRES | QQYHRLPLS | GP_HC | 850 pM | 6/6 |
| 18 | KLSNSNLYESRNGNSVA | NASTRYS | QQYHRLPLS | GP_Gibbs | 900 pM | 6/6 |
| 19 | KLMPSEWYESRMCNSVA | NASVRES | QQYHRLPLS | GP_Gibbs | 1.1 nM | 6/6 |
| 20 | KSSESFLYESRNKNSVA | GASTRES | QQYHRLTLS | GP_HC | 1.1 nM | 6/6 |
| 21 | KSSQSVLPESRNANSVA | DASTRES | QQYHRLPLS | GP_HC | 1.1 nM | 6/6 |
| 22 | KVRQSTLYESRNKNSVA | QASTRES | QQYHRLPLS | GP_HC | 1.1 nM | 6/6 |
| 23 | KSSQSVLMESRNVNSVA | DASTRES | QQYHRLPLS | GP_HC | 1.2 nM | 6/6 |
| 24 | KLENSNRWNYRDTNAVA | QASTRAA | QQYQRLPFL | En_Gibbs | 1.2 nM | 6/6 |
| 25 | KLQQSFLYESRNKNSVA | EASTRES | QQYHRLPLS | GP_Gen | 1.3 nM | 6/6 |
| 26 | KLSQVTEYESHNKNNVA | DLSTRGS | QDYHRLPLS | En_HC | 1.4 nM | 6/6 |
| 27 | KSSQSVPYESMNKNSVA | EASTRES | QQYHRLPLS | GP_HC | 1.4 nM | 6/6 |
| 28 | HISESMYFQSRNKNNIA | EMSTRER | QHYHRLPLS | En_HC | 1.5 nM | 6/6 |
| 29 | KRSQSVLYESRNKNSVA | EASTRES | QQYHRLPLS | Ctrl | 2.2 nM | 6/6 |
| 30 | KLQQSVLYESRMKNSVA | NASTRSS | QQYHRLPLS | GP_Gen | 2.7 nM | 6/6 |
| 31 | KSSWSVLYESGNKNSVA | NASTRED | QQYHRLPLS | GP_HC | 2.8 nM | 6/6 |
| 32 | KVSQSWLMESRNKNSVA | EASTRRS | QQYHRLPLS | GP_HC | 3.3 nM | 6/6 |
| 33 | KSSQSDLYESRNKNSVA | SASTRES | QQYHRLPLS | Ctrl | 3.6 nM | 6/6 |
| 34 | KISMYLQKESKNKNSVA | EMVNRES | QQYDRLPLS | En_HC | 4.0 nM | 6/6 |
| 35 | NLKENNVDNQTKYSNIA | HADQREK | QQYYRLPLQ | En_Gibbs | 4.1 nM | 6/6 |
| 36 | FLEQSTLYESRMKNSVA | NASTRCS | QQYHRLPLS | GP_Gibbs | 4.5 nM | 6/6 |
| 37 | KSSISVLYESRNKNSVA | EASTRES | QQYHRLPLS | Ctrl+GP_HC | 4.6 nM | 12/12 |
| 38 | KSSWSKLYESGNKNSVA | HASTRED | QQYHRLPLS | GP_HC | 4.6 nM | 6/6 |
| 39 | KLLGQNLQNMDKLNSIA | DQSVHYE | QQYWHLPFT | En_Gibbs | 4.7 nM | 6/6 |
| 40 | QTTSFYQHGDDQNQAMA | DVTMRDQ | QQYSRLPLS | En_Gibbs | 5.1 nM | 6/6 |
| 41 | RMDFQDLMWQYDANNIA | GATLSIE | QQYGRLPLT | En_Gibbs | 6.3 nM | 6/6 |
| 42 | IVSQLMLWGYHAKNSIA | EAVTRYN | QQYDRLPLF | En_Gen | 7.1 nM | 6/6 |
| 43 | KSVQSVLYDSDNKNDVA | GGSTRES | QQYHRLPLS | Ctrl | 7.3 nM | 6/6 |
| 44 | KSSQSVLQESRNKNSVA | GASTRES | QQYHRLPLS | Ctrl | 14 nM | 5/6 |
| 45 | KLSQSMPYEQRNKNSVA | NASLRES | QCYHRLPLS | GP_Gibbs | 15 nM | 6/6 |
| 46 | HSSLSVLYESRNKNSVA | HASTRES | QQYHRLPLS | GP_HC | 17 nM | 6/6 |
| 47 | KLSGIMRLEQKASNSIA | EVNERSR | QQYDRLPLS | En_Gen | 17 nM | 6/6 |
| 48 | ALALTLWQVDSQMNNIA | EGMLRES | QQYNRLPLG | En_Gibbs | 20 nM | 3/6 |
| 49 | KLSQVTHSESRNKNSIA | EMVTREK | QQYDRLPLS | En_HC | 21 nM | 6/6 |
| 50 | LLSGMVEEQLTRQNNIA | EGEFRDM | QQYNRLPLS | En_Gibbs | 22 nM | 2/6 |
| 51 | MISQLMNMGQFAINSVA | QASIRNA | QQYDRLPLT | En_Gen | 22 nM | 6/6 |
| 52 | KSSQSVLYEETNKNVVA | WASTRES | QQYHRLPLS | Ctrl | 24 nM | 6/6 |
| 53 | NMKVGLNFEDIQHQAIA | EVEERES | QQYARLPLT | En_Gibbs | 36 nM | 6/6 |
| 54 | KISQMFNVGTKNKNSLA | EMSTREF | QDYHRLPLS | En_HC | 45 nM | 6/6 |
| 55 | KSSISWLYNSENKNSVA | WASTRES | QQYHRLPLS | Ctrl | 45 nM | 3/6 |
| 56 | KLMQSQLYESRNKNSVA | WASTRES | QQYHRLPLS | GP_HC | 48 nM | 5/6 |
| 57 | KCSQSVLDESRNKNSVA | WASTRES | QQYHRLPLS | Ctrl | 51 nM | 5/6 |
| 58 | TLSQMSGVEAVKHNNVA | ENSTREK | QQYDRLPLT | En_Gen | 69 nM | 6/6 |
| 59 | KYSQPVLYESRNKNSVA | WANTREP | QQYHRLPLS | Ctrl | 70 nM | 6/6 |
| 60 | KSSQSVLYESRNKNSIA | WASTRES | AQYHRLPLS | Ctrl | 140 nM | 3/6 |
| 61 | TLSQMSGLEAVKHNNVA | ENSTREK | QQYDRLPLS | En_Gen | 210 nM | 5/6 |
| 62 | ILSQMLLTAGNKHSSVA | QANYRES | QQYHRLPLS | En_HC | 260 nM | 5/6 |
| 63 | MISQLWNMGQFAINSVA | QASLRCN | QQYDRLPLT | En_Gen | 350 nM | 4/6 |
| 64 | KSSQSVLYDSRNKNSVA | TASTRES | FQYHRLPLS | Ctrl | 470 nM | 1/6 |
| 65 | KFSESVLYESRTINSVL | NASTREV | QQYHRLPLS | Rand | no signal | 0/6 |

Top 11 of the variants detected in all replicates, tightest first:

CDR-L1,CDR-L2,CDR-L3,group,Kd,seen in
KLDQSVLYESRNKNSVA,NASQREQ,QQYHRLPLS,GP_Gen,320 pM,6/6
KLPQSWLYESRNKNAVA,NASTRES,QQYHRLPLS,GP_Gen,440 pM,6/6
KVSQQKLYESRNKNSVA,DASTRES,QQYHRLPLS,GP_HC,450 pM,6/6
KQSQEKLYESRNKNSVA,DGSTRES,QQYHRLPLS,GP_HC,460 pM,6/6
KISQSYLYESRNKNSVA,NASTRES,QQYHRLPLS,GP_Gen,550 pM,6/6
KLSQVYLYESRNKNSVA,GASTRES,QQYHRLPLS,GP_HC,550 pM,6/6
SLYDAMLMESRNKNPIA,DVSTRPS,QQYHRLPLS,En_HC,630 pM,6/6
KVSQSVLYESRNSNSVA,NASTRES,QQYHRLPLS,GP_Gen,660 pM,6/6
KLQQSFLYESRNKNSVA,GASTRES,QQYHRLPLS,GP_Gen,670 pM,6/6
KCSQSVDYLSRNMNNVA,NASTRES,QDYHRLPLS,GP_Gibbs,710 pM,6/6
KSSQSVLYESRNKNSVA,DASTREP,QQYHRLPLS,Ctrl,710 pM,6/6